Laboratory results: patent publication US20090017489A1, “Methods For Modulating The Development Of Dopamine Neuron By The Dopamine D2 Receptor And Compositions Thereof” (Korea University Industry And Academy Cooperation Foundation, priority 2006, published 2009)
Entries after “also recorded” stand apart in the source; their conditions may differ.

Legend:
[1] = tested on: TH-positive dopaminergic neurons in mesencephalic cultures from WT and D2R−/− mice; assay: Number of TH-positive neurons and neurite length in primary mesencephalic cultures; assay type: cell-based, mouse
Excerpt: D2R−/− mice and wild-type (WT) mice were obtained by mating D2R−/− mice and heterozygous mice, purchased from Institut de Genetiqul et Biologie Moleculaire et celluaire (Strasbourg, France), and their genotypes were identified by Southern hybridization analyses (An J J et al., Mol Cell Neurosci. 2004, 25: 732-741). Insemination was confirmed by vaginal plug and considered to be embryonic day 0 (E0). Pregnant mothers were killed at E14 in accordance with Society for Neuroscience Guidelines. To prepare primary mesencephalic neuronal cultures, the mesencephalon dissected from 14 day gestation mouse embryo was incubated with 0.1% of trypsin in HBSS for 10 minutes at 37° C. and triturated with a constricted Pasteur pipette in high-glucose DMEM media supplemented with 10% FBS (Invitrogen, San Diego, Calif.), 1.4 mM L-glutamine, and 6.0 g/L glucose. The neurons were plated at 1.0×10^5 cells per 18×18 mm coverslip (Marienfeld, Lauda-Konigshofen, Germany) or 2.0×10^5 cells per six-well plates precoated with 50 μg/ml poly-D-lysine and 2 μg/ml laminin (Sigma, St. Louis, Mo.). The neurons were maintained at 37° C. in a humidified 5% CO2 atmosphere in Neurobasal media supplemented with B27 and GlutaMax-1.
To determine whether the absence of dopamine D2 receptor (D2R) might affect the number of dopaminergic neurons, dopaminergic neurons, which were isolated from mesencephalons of wild-type (WT) and D2R−/− embryonic mice, were incubated on slides with 1.0×10^5 cells and precoated with 50 μg/ml poly-D-lysine and 2 μg/ml laminin (Sigma, St. Louis, Mo.) at 37° C. for 5 days, followed by performing immunofluorescence staining. […] Using a microscope equipped with an metamorph imaging system (Universal Imaging Corporation, West Chester, Pa.) in 20 randomly selected fields per each slide, cell counts and morphometric analysis were made in randomly selected unbiased counting frames (>40 frames out of 81 grids were counted). […]

[2] = tested on: Nurr1 activation in TH-positive neurons from WT and D2R−/− mice
[3] = tested on: phosphorylated ERK (p-ERK) in mesencephalic neurons from WT and D2R−/− mice; assay: ERK phosphorylation in mesencephalic neurons (immunofluorescence and Western blot); assay type: cell-based, mouse

SMILES: CCCN1CCC[C@@H]2Cc3n[nH]cc3C[C@H]21 [quinpirole]
- increase in number of TH neurons [1]: 25%
- neuritic extension, average length of neurites [1]: increased; also recorded: little change; also recorded: considerable improvement
- number of TH / dopaminergic neurons (in words) [1]: increased; also recorded: little changes; also recorded: little increase in the number of TH neurons was not detected
- ratio of Nurr1 positive cells to TH-positive neurons [2]: noticeable increase
- phosphorylation of ERK [3]: detected; also recorded: no phosphorylated-ERK was detected
